Biological target: T1, immobilized ELAM-1 (Homo sapiens, UniProt P16581)
T1 sequence (P16581 22-554): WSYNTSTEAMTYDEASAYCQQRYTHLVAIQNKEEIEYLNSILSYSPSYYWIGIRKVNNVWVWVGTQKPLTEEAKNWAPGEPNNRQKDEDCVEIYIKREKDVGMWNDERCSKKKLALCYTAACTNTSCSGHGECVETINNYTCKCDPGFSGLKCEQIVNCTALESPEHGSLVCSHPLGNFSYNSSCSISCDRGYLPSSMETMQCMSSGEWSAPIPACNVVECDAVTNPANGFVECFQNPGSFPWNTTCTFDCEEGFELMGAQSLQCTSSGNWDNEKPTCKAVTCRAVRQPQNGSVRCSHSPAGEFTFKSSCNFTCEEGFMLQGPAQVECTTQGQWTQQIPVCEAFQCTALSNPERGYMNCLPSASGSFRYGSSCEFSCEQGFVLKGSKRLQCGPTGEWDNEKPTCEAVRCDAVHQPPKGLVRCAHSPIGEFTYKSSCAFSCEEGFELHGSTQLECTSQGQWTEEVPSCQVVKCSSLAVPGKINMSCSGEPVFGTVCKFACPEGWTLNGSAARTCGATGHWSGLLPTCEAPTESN
Test: HL60 cell adhesion assay
Format: cell-based
Set-up: in a truncated form comprising the complete extracellular domain (amino acids 1 through 554); made in house
Description: By comparing test wells with control wells (no receptor), one can determine whether a peptide binds to ELAM-1 specifically. Peptides found to bind specifically to ELAM-1 were then synthesized as the free peptide (no phage) and tested in an HL60 cell adhesion competition assay. The competition assay was carried out similarly to the ELISA, except that labeled HL60 cells were added in addition to the peptide (the control wells were typically of at least two types: (1) no immobilized ELAM-1; and (2) no peptide; see the Examples). Peptides that block the binding of labeled HL60 cells ELAM-1 are preferred compounds of the invention.
This example describes the results of a cell adhesion assay in which the ability of HL60 cells (a promyelocytic leukemia-60 cell clone that expresses Sle^x and is available from the ATCC) to adhere to immobilized ELAM-1 was tested in the presence of various compounds, including the ELAM-1 blocking peptide of the invention.
The assay requires HL60 cells labeled with tritiated thymidine. […]
After the test compound incubation period, 100 µL of labeled HL60 cells were added to each well, and the microtiter plate was incubated at 4°C for 30 minutes. […] After this incubation, aliquots were removed from each well and placed in scintillation vials; scintillation fluid was added to each vial; and the radioactivity in each aliquot was quantitated by LS counting. […]

With monofucosyl monosialyllactose [SLe^x] the “blocking of HL60 cell binding that occurred in the absence of added compound” value (compound at about 200 µM, 4°C, Figure 1) was “did not exhibit significant blocking” and the “blocking of cell adhesion” value (concentration of 500 to 1000 µM, subsequent experiments) was “does block cell adhesion”.
